In paper PMC8427951, “Design, synthesis, and preliminary evaluation of a potential synthetic opioid rescue agent” (Journal of Biomedical Science, 2021):
Several values for one entry are separate records, joined by “and”; a condition that tells them apart may be missing. Equal entries are not always repeated.

By UniProt entry, the sequences of proteins in these tests, tags left out.
UniProt P35372, whole entry: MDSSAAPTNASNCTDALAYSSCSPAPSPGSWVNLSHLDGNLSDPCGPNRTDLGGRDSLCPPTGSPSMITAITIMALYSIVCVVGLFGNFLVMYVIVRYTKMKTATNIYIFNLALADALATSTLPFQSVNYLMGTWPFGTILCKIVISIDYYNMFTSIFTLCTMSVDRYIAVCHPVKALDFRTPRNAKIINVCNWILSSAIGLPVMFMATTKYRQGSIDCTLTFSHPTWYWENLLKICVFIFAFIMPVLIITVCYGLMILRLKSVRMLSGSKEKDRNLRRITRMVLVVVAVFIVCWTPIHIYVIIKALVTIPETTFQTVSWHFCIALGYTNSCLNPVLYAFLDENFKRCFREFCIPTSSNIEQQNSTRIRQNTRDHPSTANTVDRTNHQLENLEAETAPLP

Key:
[1] = molecular target: T1, human μ opioid receptor (MOR) (Homo sapiens, UniProt P35372); assay: Forskolin-induced cAMP accumulation (HitHunter cAMP assay), MOR antagonism versus fentanyl; details: versus EC90 of fentanyl; for IC50: read-out: MOR antagonism IC50, at least three measurements; for IC50 / MOR antagonism Imax (degree of antagonism): 15 min pretreatment, mean ± SEM; for MOR antagonism Imax (degree of antagonism): normalized to 4b
[2] = molecular target: T1, human μ opioid receptor (MOR); assay: Forskolin-induced cAMP accumulation (HitHunter cAMP assay), MOR agonism; details: mean ± SEM; for MOR agonism % efficacy: percent stimulation; for EC50: read-out: MOR agonism EC50, at least three measurements

SMILES	IC50 [1]	MOR antagonism Imax (degree of antagonism) [1]	MOR agonism % efficacy [2]	EC50 [2]	level of antagonism with longer pretreatment ([1]; pretreatment time 2 h)
CCO[C@@]12CCC(=O)[C@@H]3Oc4c(O)ccc5c4[C@@]31CCN(CC1CC1)[C@@H]2C5	3.97 nM	89.24 ± 5.87%	49.66 ± 8.51%	0.44 nM	
O=C1CC[C@@]2(OCCCc3ccccc3)[C@H]3Cc4ccc(O)c5c4[C@@]2(CCN3CC2CC2)[C@H]1O5			101.01 ± 1.86%		
O=C1CC[C@@]2(O)[C@H]3Cc4cccc5c4[C@@]2(CCN3CC2CC2)[C@H]1O5	> 10000 nM		27.42 ± 5.41%	139 nM	
CO[C@@]12CCC(=O)[C@@H]3Oc4c(O)ccc5c4[C@@]31CCN(CC1CC1)[C@@H]2C5	13.3 nM	71.74 ± 12.10%	25.31 ± 2.76%	2.99 nM	
COC(=O)/C=C/C(=O)N[C@@H]1CC[C@@]2(O)[C@H]3Cc4ccc(O)c5c4[C@@]2(CCN3CC2CC2)[C@H]1O5		60.0% and 59.98 ± 9.42%			full level of antagonism
O=C(CCc1ccccc1)O[C@@]12CCC(=O)[C@@H]3Oc4c(O)ccc5c4[C@@]31CCN(CC1CC1)[C@@H]2C5			78.98 ± 3.84%		
O=C1CC[C@@]2(OCc3ccccc3)[C@H]3Cc4ccc(O)c5c4[C@@]2(CCN3CC2CC2)[C@H]1O5	39 nM	102.54 ± 26.42%	19.98 ± 1.1%	15.4 nM	
Oc1ccc2c3c1O[C@H]1CCC[C@@]4(O)[C@@H](C2)N(CC2CC2)CC[C@]314	8.83 nM	121.83 ± 5.64%	31.69 ± 3.69%	0.88 nM	
COc1ccc2c3c1O[C@H]1C(=O)CC[C@@]4(O)[C@@H](C2)N(CC2CC2)CC[C@]314	> 10000 nM		45.87 ± 8.62%	103 nM	
